The nature of assay [1]: NCI Yeast Anticancer Drug Screen. Data for the rad50 strain (AID 155).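 Also: 0% = growth of vehicle-only cultures of the same strain.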 The note with it: S. cerevisiae rad50 strain growth inhibition; at 50.0 µM; hits give high values.
The nature of assay [2]: NCI Yeast Anticancer Drug Screen. Data for the mec2-1 strain (AID 157). Conditions: S. cerevisiae mec2-1 strain, at 50.0 µM, hits give high values.
Assay [3] is described as follows: NCI Yeast Anticancer Drug Screen. Data for the sgs1 mgt1 strain (AID 161).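 Also: 0% = growth of cultures given vehicle only.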 Conditions: S. cerevisiae sgs1 mgt1 strain, at 50.0 µM, hits give high values.
Assay [4] in a line: NCI Yeast Anticancer Drug Screen. Data for the cln2 rad14 strain (AID 165).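 Also: 0% = growth equal to vehicle treated cultures.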 The note with it: S. cerevisiae cln2 rad14 strain, at 50.0 µM, hits give high values.
Assay [5] is described as follows: NCI Yeast Anticancer Drug Screen. Data for the bub3 strain (AID 167). The note with it: S. cerevisiae bub3 mutant strain, at 50.0 µM, hits give high values.
Assay [6] in a line: NCI Yeast Anticancer Drug Screen. Data for the mlh1 rad18 strain (AID 175). The note with it: S. cerevisiae mlh1 rad18 strain growth inhibition; at 50.0 µM; hits give high values.

SMILES strings stand for the structures. This is a selection; strong and weak results do not stand in their true shares. Activity calls are given as the source filed them. Rule as the data show it: active = growth inhibition above about 70%; inactive = the rest.

Consider `[O-]/[N+](C/[N+]([O-])=N/O)=N\O`, for which the growth inhibition in assay [1] was inactive: 32.4%; in assay [2], inactive: 31.2%; in assay [3] it was inactive: 22.6%; in assay [4], inactive: -37.8%; in assay [5] it was inactive: 32.1%; in assay [6], inactive: 31.6%.

On to `C=C(C)C(=O)OC1C(=O)C2OC3C=C(C)C(=O)CC3(COC(C)=O)C1(C)C21CO1` (stereo not given), for which the growth inhibition is inactive: 37.8% in assay [1]; inactive: 7.5% in assay [2]; inactive: 17.5% in assay [3]; inactive: 14.9% in assay [4]; inactive: -12.2% in assay [5]; inactive: -17.1% in assay [6].

Regarding `Nc1c([N+](=O)[O-])cc(Cc2cc([N+](=O)[O-])c(N)c([N+](=O)[O-])c2)cc1[N+](=O)[O-]`, the growth inhibition in assay [1] is inactive: 31.8%; in assay [2] it was inactive: 7.95%; in assay [3], inactive: 11.9%; in assay [4], inactive: 13.7%; in assay [5] it was inactive: -6.1%; in assay [6], inactive: 16.1%.

In the case of `Cc1cc(N(CCCl)CCCl)ccc1N`, the growth inhibition in assay [1] was inactive: -1.7%; in assay [2], inactive: -11.7%; in assay [3] it was inactive: -16.4%; in assay [4], inactive: 14%; in assay [5], inactive: -29.5%; in assay [6], inactive: -14.2%.

As for `Cc1ccc2c(c1)C[P+](c1ccccc1)(c1ccccc1)CCC2C` (stereo not given), the growth inhibition in assay [1] was inactive: 21.1%; in assay [2] it was inactive: 28.9%; in assay [3] it was inactive: -6.05%; in assay [4], inactive: -34.6%; in assay [5] it was inactive: 5.2%; in assay [6] it was inactive: -13.6%.

Take `O=C1NC(=O)C(c2cccc(N(CCCl)CCCl)c2)N1` (stereo not given): the growth inhibition in assay [1] was inactive: 29.8%; in assay [2] it was inactive: 8%; in assay [3], inactive: 14.9%; in assay [4] it was inactive: 16.6%; in assay [5], inactive: 27.6%; in assay [6], inactive: 15.9%.

Take `O=c1c2ccccc2c(=O)n2n1P(Cl)CP2Cl` (stereo not given): the growth inhibition in assay [1] was inactive: 5%; in assay [2], inactive: -4.6%; in assay [3] it was inactive: -4.7%; in assay [4], inactive: -5.5%; in assay [5] it was inactive: 7.2%; in assay [6], inactive: -12.5%.

In the case of `CN(N=O)C1=NC(c2ccccc2Cl)P(=O)(Nc2ncccn2)O1` (stereo not given), the growth inhibition was inactive: -5.45% in assay [1]; inactive: -21.4% in assay [2]; inactive: -16.7% in assay [3]; inactive: 9.2% in assay [4]; inactive: 5.85% in assay [5]; inactive: 12.9% in assay [6].

As for `O=C(CF)Nc1ccc(N(CCCl)CCCl)cc1`, the growth inhibition is inactive: 2.4% in assay [1]; inactive: -7.9% in assay [2]; inactive: -27.1% in assay [3]; inactive: -18.4% in assay [4]; inactive: -36.8% in assay [5]; inactive: -34.3% in assay [6].

As to `NNc1ccc([N+](=O)[O-])cc1[N+](=O)[O-]`, the growth inhibition in assay [1] is inactive: 56.2%; in assay [2], inactive: 6.25%; in assay [3], inactive: 34.2%; in assay [4], inactive: 21.8%; in assay [5], inactive: 33.6%; in assay [6], inactive: 55.8%.

As to `Cc1c([N+](=O)[O-])c([N+](=O)[O-])c(CCn2cnc3c(N(CCO)CCO)ncnc32)c([N+](=O)[O-])c1[N+](=O)[O-]`, the growth inhibition was inactive: 21.7% in assay [1]; inactive: 1.1% in assay [2]; inactive: 3.75% in assay [3]; inactive: 2% in assay [4]; inactive: 4.7% in assay [5]; inactive: 14.8% in assay [6].

With `N#CC(O)CCOP(N)(=O)N(CCCl)CCCl` (stereo not given), the growth inhibition in assay [1] was inactive: 61.5%; in assay [2] it was inactive: 60.6%; in assay [3] it was active: 75.3%; in assay [4], inactive: 68.7%; in assay [5], inactive: 36.1%; in assay [6], inactive: 34.5%.

As to `O=[N+]([O-])c1ccc(N(CCS)c2ccc([N+](=O)[O-])cc2[N+](=O)[O-])c([N+](=O)[O-])c1`, the growth inhibition in assay [1] is inactive: -14.8%; in assay [2], inactive: -17.9%; in assay [3] it was inactive: -13.2%; in assay [4] it was inactive: 5.6%; in assay [5] it was inactive: -14.9%; in assay [6], inactive: -10.9%.

Turning to `O=P(NC(=S)Nc1ccccc1)(NC(=S)Nc1ccccc1)N(CCCl)CCCl`, the growth inhibition is inactive: -15.4% in assay [1]; inactive: -1.65% in assay [2]; inactive: -16.2% in assay [3]; inactive: 39.9% in assay [4]; inactive: -1.1% in assay [5]; inactive: -3.55% in assay [6].

On to `O=C(CSc1ccccn1)c1ccccc1`, for which the growth inhibition is inactive: 29.4% in assay [1]; inactive: 0% in assay [2]; inactive: 43.4% in assay [3]; inactive: 20.5% in assay [4]; inactive: 13.1% in assay [5]; inactive: 3.15% in assay [6].

`CC1COP(N(C(C)C)C(C)C)O1` (stereo not given): the growth inhibition was inactive: 13.2% in assay [1]; inactive: -34% in assay [2]; inactive: -3.2% in assay [3]; inactive: -33.5% in assay [4]; inactive: -6.85% in assay [5]; inactive: 4.8% in assay [6].

On to `Nc1ccccc1[As](=O)(O)O`, for which the growth inhibition in assay [1] is inactive: -3.7%; in assay [2] it was inactive: -12.9%; in assay [3], inactive: -23.4%; in assay [4] it was inactive: -2.95%; in assay [5], inactive: -28.2%; in assay [6], inactive: -28.6%.

`CCCCOP(=O)(OCCCC)N1CCCC1C(=O)O` (stereo not given): the growth inhibition in assay [1] is inactive: -1.35%; in assay [2] it was inactive: -7.3%; in assay [3] it was inactive: -8.85%; in assay [4], inactive: 8.6%; in assay [5], inactive: -21.3%; in assay [6], inactive: -12.6%.

For `O=C1NC(=O)C2(CC3CCCC(C2)N3CCCl)N1` (stereo not given), the growth inhibition was inactive: -17.7% in assay [1]; inactive: -22% in assay [2]; inactive: -18.9% in assay [3]; inactive: 7.55% in assay [4]; inactive: -23.6% in assay [5]; inactive: -16.1% in assay [6].

With `CC12CCCC1(OO)OOC2=O` (stereo not given), the growth inhibition in assay [1] is inactive: -10.9%; in assay [2], inactive: -1.85%; in assay [3], inactive: -13.8%; in assay [4] it was inactive: -40.5%; in assay [5], inactive: 3.25%; in assay [6], inactive: -17.3%.

The record behind these values is PubChem BioAssay (NCI).
